## Properties, as collected for the OPERA models

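The numbers are reported measurements, compiled and curated for the OPERA QSAR suite. The files give a single number for a compound and property, which may rest on several reports. Conditions of the individual experiments are not part of the data. The measured form (salt, isomer or mixture) is not always the one drawn. Some upstream entries may be estimates or bounds without being marked so.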

Melting points are in °C.
Boiling points are in °C, nominally at 760 mmHg.
The octanol-water partition coefficient is given as log10; larger values mean a more lipophilic compound.
Solubility in water is on a log10 molar scale (set defined at 25 °C).
Vapor pressure is log10 of mmHg; the set covers 15 to 30 °C, mostly 20 to 25 °C.
Henry's law constant (air-water partitioning) is log10 of atm·m3/mol, nominally at 25 °C.
The unbound fraction in human plasma runs from 0 (all bound) to 1 (all free).
Intrinsic clearance (human, µL/min per 10^6 hepatocytes): higher is faster turnover, and 0 stands for none detected.

* CCCCC1=NC2(CCCC2)C(=O)N1Cc1ccc(-c2ccccc2-c2nnn[nH]2)cc1: plasma fu 0.1; hepatic Clint 11.95 µL/min/10^6 cells
* Clc1ccc(Oc2ccc(Cl)cc2Cl)c(Cl)c1: MP 70 °C; log S -6.82 (log10 mol/L)
* CC(O)C1CCCCC1 (centres undefined): logP (octanol/water) 1.6; vapor pressure -0.559 (log10 mmHg)
* CCCCCCCCC=CCCCCCCCC(=O)OC(C)C: logP (octanol/water) 5.69; log S -6.335 (log10 mol/L)
* COCCCOc1cc(C[C@@H](C[C@H](N=[N+]=[N-])[C@@H]2C[C@@H](C(C)C)C(=O)O2)C(C)C)ccc1OC: MP 60.6 °C; log S -5.851 (log10 mol/L); vapor pressure -10.76 (log10 mmHg)
* CCC1CCC(c2ccc(-c3cc(F)c(C(F)(F)Oc4cc(F)c(F)c(F)c4)c(F)c3)cc2)OC1 (centres undefined): MP 79.6 °C; log S -6.768 (log10 mol/L); vapor pressure -8.709 (log10 mmHg)
* CCCCCCCCCCCCCCCCCC(=O)NCCC[N+](C)(C)CC(=O)OCCCCCCCCCCCCCC.[Cl-]: MP 25.3 °C; logP (octanol/water) 5
* CC(=O)Oc1cccc(OC(C)=O)c1: MP -33.5 °C; vapor pressure -1.952 (log10 mmHg)
* O=Cc1ccccc1C=O: logP (octanol/water) 0.75; vapor pressure -2.362 (log10 mmHg)
* Cc1ccc2c(c1)OCC(=O)CO2: MP 37.9 °C; logP (octanol/water) 1.95; vapor pressure -2.185 (log10 mmHg)
* C=CC1CCC(C=C)C(C=C)C1 (centres undefined): log S -6.173 (log10 mol/L); vapor pressure -0.335 (log10 mmHg)
* CC(C)=CCCC(C)CC=O (centres undefined): log S -3.244 (log10 mol/L); vapor pressure -0.815 (log10 mmHg)
* Clc1ccccc1-c1c(Cl)cc(Cl)c(Cl)c1Cl: MP 100 °C; vapor pressure -3.914 (log10 mmHg)
* CCCc1ccc(-c2ccc(OCC)c(F)c2F)cc1: MP 49.8 °C; boiling point 349.8 °C; logP (octanol/water) 6.3; log S -7.119 (log10 mol/L); vapor pressure -5.202 (log10 mmHg)
* OB(O)c1ccc2cc(O)ccc2c1: MP 217 °C; logP (octanol/water) 2.47; log S -2.241 (log10 mol/L)
* CCB(CC)OC: log S -4.119 (log10 mol/L); vapor pressure 1.695 (log10 mmHg)
* C[C@@H]1C[C@H]2[C@@H]3C[C@H](F)C4=CC(=O)C=C[C@]4(C)[C@H]3[C@@H](O)C[C@]2(C)[C@H]1C(=O)CO: logP (octanol/water) 2.3; log S -3.266 (log10 mol/L); plasma fu 0.1
* CCOc1ccccc1OCC: log S -2.41 (log10 mol/L); vapor pressure -1.19 (log10 mmHg)
* O=C1c2ccccc2C(=O)N1C[C@H]1CN(c2ccc(N3CCOCC3=O)cc2)C(=O)O1: MP 219.6 °C; logP (octanol/water) -0.2
* CC(C)OCCOC(=O)c1ccccc1O: logP (octanol/water) 3.25; log S -2.924 (log10 mol/L); vapor pressure -2.652 (log10 mmHg)
* CCCCN[Si](C)(NCCCC)NCCCC: boiling point 260.7 °C; vapor pressure -1.87 (log10 mmHg)
* O=C(Nc1ccnc(=O)[nH]1)c1ccccc1: logP (octanol/water) 0.9; vapor pressure -6.569 (log10 mmHg)
* CCCCC(CC)CCl (centres undefined): logP (octanol/water) 5.6; Henry's law constant -2.629 (log10 atm·m3/mol)
* CC(CC(C)C)=NNC(=O)c1cc2ccccc2cc1O: MP 149.9 °C; log S -4.813 (log10 mol/L)
* COc1ccccc1Oc1c(NS(=O)(=O)c2ccc(C(C)(C)C)cc2)nc(-c2ncccn2)nc1OCCO: logP (octanol/water) 3.7; log S -4.764 (log10 mol/L)
* CCCCCCCOCC(C)CC=O (centres undefined): boiling point 238 °C; logP (octanol/water) 4.8; log S -3.319 (log10 mol/L); vapor pressure -0.166 (log10 mmHg)
* CC(C)[NH2+][B-](F)(F)F: MP 108 °C; vapor pressure -2.663 (log10 mmHg)
* O=c1oc(-c2ccccc2NS(=O)(=O)c2ccc3ccccc3c2)nc2ccccc12: MP 194.4 °C; logP (octanol/water) 4.49
* O=c1nc(-c2ccccc2)[nH]c(-c2ccccc2)n1: MP 294.6 °C; logP (octanol/water) 1.8; log S -5.494 (log10 mol/L)
* FC(F)(F)c1cccc(Cl)c1: logP (octanol/water) 2.14; vapor pressure 0.805 (log10 mmHg)
* CCCCCCCCCCCCCCCCCCOC(=O)CCS: MP 35.28 °C; logP (octanol/water) 3.9; vapor pressure -6.904 (log10 mmHg)
* O=C1C=CC(=O)N1c1ccccc1: log S -2.327 (log10 mol/L); vapor pressure -3.799 (log10 mmHg)
* O[C@@H]1[C@@H]2O[C@@H]3[C@@H](O)[C@H](O)[C@H](O[C@@H]4[C@@H](O)[C@H](O)[C@H](O[C@@H]5[C@@H](O)[C@H](O)[C@H](O[C@@H]6[C@@H](O)[C@H](O)[C@H](O[C@@H]7[C@@H](O)[C@H](O)[C@H](O[C@@H]8[C@@H](O)[C@H](O)[C@H](O[C@@H]9[C@@H](O)[C@H](O)[C@H](O[C@H]([C@H]1O)[C@H](CBr)O2)O[C@H]9CBr)O[C@H]8CBr)O[C@H]7CBr)O[C@H]6CBr)O[C@H]5CBr)O[C@H]4CBr)O[C@H]3CBr: logP (octanol/water) 3.5; log S -6.419 (log10 mol/L); vapor pressure -4.617 (log10 mmHg)

4 of these entries, quoted again:

* COc1ccccc1Oc1c(NS(=O)(=O)c2ccc(C(C)(C)C)cc2)nc(-c2ncccn2)nc1OCCO: logP (octanol/water) 3.7; log S -4.764 (log10 mol/L)
* CC(C)OCCOC(=O)c1ccccc1O: logP (octanol/water) 3.25; log S -2.924 (log10 mol/L); vapor pressure -2.652 (log10 mmHg)
* OB(O)c1ccc2cc(O)ccc2c1: MP 217 °C; logP (octanol/water) 2.47; log S -2.241 (log10 mol/L)
* CCCCC(CC)CCl (centres undefined): logP (octanol/water) 5.6; Henry's law constant -2.629 (log10 atm·m3/mol)

Source: data files of OPERA 2.9 (Mansouri et al.), github.com/kmansouri/OPERA.